Data: the supplement of paper PMC11246515
± gives the standard deviation of the averaged measurements.

Assay: total protein half-life in vivo (active degradation + dilution); higher = more stable protein
[1] = E. coli NCM3722 delta-clpP delta-lon delta-hslV, growth: N-lim chemostat, doubling time 6 h
[2] = E. coli NCM3722 delta-clpP, growth: N-lim chemostat, doubling time 6 h
[3] = E. coli NCM3722 delta-hslV, growth: N-lim chemostat, doubling time 6 h
[4] = E. coli NCM3722 delta-lon, growth: N-lim chemostat, doubling time 6 h
[5] = E. coli NCM3722 delta-smpB, growth: N-lim chemostat, doubling time 6 h
[6] = wild type E. coli NCM3722, growth: C-lim chemostat, doubling time 3 h
[7] = wild type E. coli NCM3722, growth: C-lim chemostat, doubling time 6 h
[8] = wild type E. coli NCM3722, growth: C-lim chemostat, doubling time 12 h
[9] = wild type E. coli NCM3722, growth: N-lim chemostat, doubling time 6 h
[10] = wild type E. coli NCM3722, growth: N-lim chemostat, doubling time 12 h
[11] = wild type E. coli NCM3722, growth: P-lim chemostat, doubling time 6 h
[12] = wild type E. coli NCM3722, growth: P-lim chemostat, doubling time 12 h

Sequence | total protein half-life in vivo [1] [h] | total protein half-life in vivo [2] [h] | total protein half-life in vivo [3] [h] | total protein half-life in vivo [4] [h] | total protein half-life in vivo [5] [h] | total protein half-life in vivo [6] [h] | total protein half-life in vivo [7] [h] | total protein half-life in vivo [8] [h] | total protein half-life in vivo [9] [h] | total protein half-life in vivo [10] [h] | total protein half-life in vivo [11] [h] | total protein half-life in vivo [12] [h]
MAGNKPFNKQQAEPRERDPQVAGLKVPPHSIEAEQSVLGGLMLDNERWDDVAERVVADDFYTRPHRHIFTEMARLQESGSPIDLITLAESLERQGQLDSVGGFAYLAELSKNTPSAANISAYADIVRERAVVREMISVANEIAEAGFDPQGRTSEDLLDLAESRVFKIAESRANKDEGPKNIADVLDATVARIEQLFQQPHDGVTGVNTGYDDLNKKTAGLQPSDLIIVAARPSMGKTTFAMNLVENAAMLQDKPVLIFSLEMPSEQIMMRSLASLSRVDQTKIRTGQLDDEDWARISGTMGILLEKRNIYIDDSSGLTPTEVRSRARRIAREHGGIGLIMIDYLQLMRVPALSDNRTLEIAEISRSLKALAKELNVPVVALSQLNRSLEQRADKRPVNSDLRESGSIEQDADLIMFIYRDEVYHENSDLKGIAEIIIGKQRNGPIGTVRLTFNGQWSRFDNYAGPQYDDE [P0ACB0] | 6.14 ± 0.4 | 6.2 ± 2.1 | 4.45 ± 0.096 | 4.64 ± 0.25 | 4.46 ± 0.18 | 2.834 ± 0.023 | 5.5521 ± 0.0032 | 9.543 ± 0.032 | 4.44 ± 0.45 | 7.67 ± 0.26 | 5.76 ± 0.48 | 11.9 ± 1.4
MAKGQSLQDPFLNALRRERVPVSIYLVNGIKLQGQIESFDQFVILLKNTVSQMVYKHAISTVVPSRPVSHHSNNAGGGTSSNYHHGSSAQNTSAQQDSEETE [P0A6X3] | 5.56 ± 0.51 | 6.21 ± 0.57 | 5.27 ± 1.6 | – | 5.24 ± 0.79 | 3.33 ± 0.29 | – | 13 ± 0.14 | 6.9 | 12.3 ± 0.4 | 4.89 ± 0.06 | 12.8 ± 2.6
MTLSPYLQEVAKRRTFAIISHPDAGKTTITEKVLLFGQAIQTAGTVKGRGSNQHAKSDWMEMEKQRGISITTSVMQFPYHDCLVNLLDTPGHEDFSEDTYRTLTAVDCCLMVIDAAKGVEDRTRKLMEVTRLRDTPILTFMNKLDRDIRDPMELLDEVENELKIGCAPITWPIGCGKLFKGVYHLYKDETYLYQSGKGHTIQEVRIVKGLNNPDLDAAVGEDLAQQLRDELELVKGASNEFDKELFLAGEITPVFFGTALGNFGVDHMLDGLVEWAPAPMPRQTDTRTVEASEDKFTGFVFKIQANMDPKHRDRVAFMRVVSGKYEKGMKLRQVRTAKDVVISDALTFMAGDRSHVEEAYPGDILGLHNHGTIQIGDTFTQGEMMKFTGIPNFAPELFRRIRLKDPLKQKQLLKGLVQLSEEGAVQVFRPISNNDLIVGAVGVLQFDVVVARLKSEYNVEAVYESVNVATARWVECADAKKFEEFKRKNESQLALDGGDNLAYIATSMVNLRLAQERYPDVQFHQTREH [P0A7I4] | 5.61 ± 0.27 | 5 ± 0.27 | 6.12 ± 0.53 | 5.41 ± 0.5 | 5.28 ± 0.19 | 3.2 ± 0.41 | 5.83 ± 0.28 | 11.4 ± 2.5 | 4.98 ± 0.058 | 9.18 ± 0.67 | 6.24 ± 0.84 | 12.3 ± 3
